{
  "sequences": {"note": "Amino acid sequences for entries named in this document (tags omitted). A change or cut given only in a name is not applied to a line headed by its entry.", "UniProt P11229": "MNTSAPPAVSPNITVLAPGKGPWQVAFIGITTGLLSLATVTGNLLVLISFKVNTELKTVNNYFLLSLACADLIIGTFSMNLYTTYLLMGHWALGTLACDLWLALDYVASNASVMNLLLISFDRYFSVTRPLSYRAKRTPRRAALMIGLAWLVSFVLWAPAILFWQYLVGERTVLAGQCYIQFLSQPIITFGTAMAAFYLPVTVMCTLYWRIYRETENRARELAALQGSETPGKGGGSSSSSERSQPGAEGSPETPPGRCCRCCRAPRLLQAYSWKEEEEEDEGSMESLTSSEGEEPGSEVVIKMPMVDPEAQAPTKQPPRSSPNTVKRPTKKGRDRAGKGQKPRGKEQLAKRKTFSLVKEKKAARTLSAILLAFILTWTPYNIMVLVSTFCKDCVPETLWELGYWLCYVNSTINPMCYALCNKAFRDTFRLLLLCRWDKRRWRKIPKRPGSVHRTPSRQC"},
  "source": "patent US20060287347A1",
  "about": "“Methods for treating smooth muscle disorders using trospium” (priority 2005, published 2006)",
  "target": "human recombinant muscarinic receptor M-1 (Homo sapiens, UniProt P11229)",
  "assay": "biochemical",
  "type": "binding",
  "details": "membranes from SF9 cells, radioligand 3H scopolamine methylchloride; read-out: Affinity (negative logarithm of the dissociation constant Ki), M-1 (converted)",
  "data": [
    {"smiles": "NC(=O)C(c1ccccc1)(c1ccccc1)[C@@H]1CCN(CCc2ccc3c(c2)CCO3)C1", "note": "[Darifenacin]", "values": [
      {"measurement": "Ki", "value": 5.01, "unit": "nM"}
    ]}
  ]
}
